Literature values, collected in PMC12640937, “Integrating drug effects on individual cardiac ionic currents and cardiac action potentials to understand nonclinical translation to clinical ECG changes” (Frontiers in Pharmacology, 2025).

Tested on: hERG1a and hERG1a/1b channels
Settings: ref Tran et al., 2020; cited from earlier work

With `CO[C@]12CC[C@@]3(C[C@@H]1[C@](C)(O)C(C)(C)C)[C@H]1Cc4ccc(O)c5c4[C@@]3(CCN1)[C@H]2O5` as the compound, how does the “pharmacological difference between hERG1a and hERG1a/1b channels” value read?
Its value is “no pharmacological differences”.
